Data set [1] relates to Salmonella typhimurium. Briefly: Genotoxicity in Salmonella typhimurium TA100 assessed as number of revertant colonies per plate at 3 ug/plate after 20 mins in absence of S9 fraction by Ames test (reference value: 123). The following applies: salmonella enterica subsp. enterica serovar typhimurium.
For data set [2], the system named is Salmonella typhimurium. Briefly: Genotoxicity in Salmonella typhimurium TA1535 assessed as number of revertant colonies per plate at 5 ug/plate after 20 mins in absence of S9 fraction by Ames test (reference value: 15). The following applies: salmonella enterica subsp. enterica serovar typhimurium.
Data set [3] relates to Escherichia coli. The data set can be described thus: Genotoxicity in Escherichia coli WP2uvrA assessed as number of revertant colonies per plate at 2 ug/plate after 20 mins in absence of S9 fraction by Ames test (reference value: 24). The following applies: s9, 20 min.

These results are taken from ChEMBL document CHEMBL3856258, “Phosphonate-based irreversible inhibitors of human γ-glutamyl transpeptidase (GGT). GGsTop is a non-toxic and highly selective inhibitor with critical electrostatic interaction with an active-site residue Lys562 for enhanced inhibitory activity” (Bioorg Med Chem, 2016).

Molecules are shown by their SMILES.

Regarding `CCN(N=O)C(=N)N[N+](=O)[O-]`, the Activity in data set [1] was found to be 772; in data set [2], 996; in data set [3], 954.
